# High-throughput results from PubChem BioAssay.
# Hits are enriched below; roughly 16% of the tested compounds scored in any of these assays.
# TDP1 block: blocks human tyrosyl-DNA phosphodiesterase 1 | Potency, µM (doses to about 130 µM), for inactives: at the highest dose activity change, negative = inhibition, usual class: inhibitors | recombinant TDP1, AlphaScreen DNA substrate cleavage | Q9NUW8 | 0.28% of 350,000 active; further: potency means the concentration at half of the fitted maximal effect; on the % scale 0 is the no-effect control and ±100 the full control effect; nearly all actives have a fitted effect of over 40% in size
#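 Recombinant human Tdp1 (E. coli-expressed, 1 nM final) preincubated with compounds 15 min at room temperature, then 5'-biotin/3'-phosphotyrosine-FITC DNA substrate (15 nM final) added for 5 min. AlphaScreen beads (10 ug/ml final) added 10 min; cleavage lowers signal.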
# DT40 TDP1 no CPT: qHTS for Inhibitors of human tyrosyl-DNA phosphodiesterase 1 (TDP1): qHTS in cells in absence of CPT; AID 686978, 2013; Potency, µM (doses to about 46.2 µM), inactives show at the top dose activity change, negative = growth inhibition, actives largely listed as inhibitors; DT40 Tdp1-/- hTDP1 cells, no CPT, ATP luminescence, 48 h; 15% of 420,000 active; further: potency means the concentration at half of the fitted maximal effect; on the % scale 0 is the no-effect control and ±100 the full control effect; nearly all actives have a fitted effect of over 55% in size
#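 No-CPT arm: Tdp1-/-;hTDP1 DT40 cells (400/well) plus compounds, incubated ≥48 hr at 37 °C. Readout CellTiter-Glo luminescence.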
# DT40 TDP1 CPT: DT40-hTDP1 cell growth loss with CPT; chicken DT40 Tdp1-/-;hTDP1 cells + 20 nM CPT, ATP luminescence, 48 h; Potency, µM (top dose mostly 46.2 µM), for inactives: at the highest dose activity change, negative = growth inhibition, actives largely listed as inhibitors; 12% of 420,000 active; further: potency means the concentration at half of the fitted maximal effect; on the % scale 0 is the no-effect control and ±100 the full control effect; nearly all actives have a fitted effect of over 55% in size
#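 Chicken DT40 Tdp1-/- cells stably complemented with human TDP1 were seeded at 400 cells/well in medium containing 20 nM camptothecin, exposed to pin-transferred compounds, and grown at 37 °C for at least 48 hr. Viability was read as ATP luminescence.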
# miR-21 reporter: raises the signal of a miR-21 reporter; HeLa miR-21 FLuc reporter, luciferase, 48 h; Potency, µM (highest dose often 38.3 µM), for inactives: at the highest dose reporter change, positive = more light; 340,000 tested, under 10 active; active = well fitted rising curve with a large enough effect; inconclusive = small, poorly fitted or top-dose-only effect; inactive = no such curve, though single readings can be large or run the other way;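 also: % of control where 0% means no effect; miR-21 action dims this reporter so a rising signal means less miR-21 action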
#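 Compounds were titrated across several concentrations (up to approximately 40 uM) and incubated 48 hours with HeLa miR-21-FLuc reporter cells (miR-21 target sequence downstream of FLuc, endogenous miR-21). Readout was firefly luciferase luminescence after lytic detection reagent.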
# uPA surface inh: inhibitors of cell surface uPA generation; cell surface uPA generation assay, qHTS; Potency, µM (titrated, usually from 38.3 µM), for inactives: at the top dose activity change, negative = inhibition, hits mostly inhibitors; 0.31% of 330,000 active; AID 540303; active means well fitted inhibition curve with a large enough effect; inconclusive means small, poorly fitted or top-dose-only effect; inactive means no such curve, though single readings can be large or run the other way; tested in mouse RAW 264.7 cells; further: potency means the concentration at half of the fitted maximal effect; on the % scale 0 is the no-effect control and ±100 the full control effect; nearly all actives have a fitted effect of over 55% in size
# * = called active by the depositor; ? = inconclusive; . = not tested or not shown; [ ] = remark or other dose. Unless noted, the call rests on the fitted dose curve; in most records, active means well fitted curve in the direction sought with a large enough effect; inconclusive means small, poorly fitted or top-dose-only effect, or another doubt; inactive means no such curve, though single readings can be large; an effect the other way counts as inactive or inconclusive.
SMILES,TDP1 block,DT40 TDP1 no CPT,DT40 TDP1 CPT,miR-21 reporter,uPA surface inh
CCN(CC)C(=O)c1sc(NC(=O)c2cc(-c3ccc(C)s3)nc3ccccc23)c(C(=O)OC)c1C,0%,23µM*,?,-5%,-1%
CCN(CC)C(=O)c1sc(NC(=O)C(Sc2ccccc2)c2ccccc2)c(C(=O)OC(C)C)c1C (configuration not stated),6%,16µM*,?,24%,-3%
CCN(CC)CC(C)CNC(=O)c1cc(-c2ccc(Br)s2)nc2ccccc12 (configuration not stated),6%,9.2µM*,8.2µM*,9%,.
CCOC(=O)c1c(NC(=O)c2ccoc2C)sc(C(=O)N(C)C)c1C,2%,23µM*,-28%,-21%,2%
Cc1ccc(S(=O)(=O)NNC(=O)c2cc([N+](=O)[O-])c(C)c([N+](=O)[O-])c2)cc1,.,-20%,0%,.,-3%
COc1ccccc1/C=C/CN1CCOCC1,-8%,-12%,-9%,-6%,.
Cc1onc(NC(=O)NC(=O)c2ccccc2F)c1Br,0%,4%,-17%,-42%,-6%
ONCc1ccccc1,-1%,.,.,.,.
Cc1ccc(C)c(-c2cc(C(=O)Nc3sc(C)c(C)c3C(N)=O)c3ccccc3n2)c1,6%,?,21µM*,?,.
CCN(CC)C(=O)c1sc(NC(=O)c2ccoc2C)c(C(=O)OC)c1C,3%,21µM*,?,-5%,4%
CC(=O)Nc1cccc(NS(=O)(=O)c2cc3c4c(c2)CCN4C(=O)CC3)c1,-2%,-16%,-17%,.,8%
CC(=O)c1sc(C(=O)O)c(-c2ccco2)c1-c1ccco1,50µM*,-19%,11%,7%,8%
O=C(O)c1sc(C(=O)O)c(-c2ccccc2)c1-c1ccccc1,.,3%,2%,.,.
COc1cccc(/C=N/NC(=O)c2ccccc2)c1OS(=O)(=O)c1ccccc1,3%,26µM*,?,-4%,-3%
COc1ccc(/C=N/NC(N)=S)cc1OC(=O)c1cccc2ccccc12,8%,18µM*,15µM*,11%,-12%

# A different layout for some results above:
canonical_smiles: CCN(CC)C(=O)c1sc(NC(=O)c2cc(-c3ccc(C)s3)nc3ccccc23)c(C(=O)OC)c1C
  TDP1 block = 0% | DT40 TDP1 no CPT = 23µM* | DT40 TDP1 CPT = ? | miR-21 reporter = -5% | uPA surface inh = -1%

canonical_smiles: COc1ccc(/C=N/NC(N)=S)cc1OC(=O)c1cccc2ccccc12
  TDP1 block = 8% | DT40 TDP1 no CPT = 18µM* | DT40 TDP1 CPT = 15µM* | miR-21 reporter = 11% | uPA surface inh = -12%

canonical_smiles: CCN(CC)CC(C)CNC(=O)c1cc(-c2ccc(Br)s2)nc2ccccc12 (configuration not stated)
  TDP1 block = 6% | DT40 TDP1 no CPT = 9.2µM* | DT40 TDP1 CPT = 8.2µM* | miR-21 reporter = 9% | uPA surface inh = .

canonical_smiles: CCOC(=O)c1c(NC(=O)c2ccoc2C)sc(C(=O)N(C)C)c1C
  TDP1 block = 2% | DT40 TDP1 no CPT = 23µM* | DT40 TDP1 CPT = -28% | miR-21 reporter = -21% | uPA surface inh = 2%

# The list goes on:
SMILES,TDP1 block,DT40 TDP1 no CPT,DT40 TDP1 CPT,miR-21 reporter,uPA surface inh
COc1ccccc1/C=N/NC(=O)c1cccc2ccccc12,.,?,23µM*,1%,0%
CCCCOc1ccc(C(=O)N/N=C/c2cn[nH]c2-c2ccc(OC)c(OC)c2)cc1,7%,?,?,-2%,-6%
COc1ccc(-c2[nH]ncc2/C=N\NC(=O)c2ccc(C(C)(C)C)cc2)cc1OC,6%,26µM*,?,-31%,5%
COc1cccc(/C=N/NC(=O)c2ccc(=O)n(C)c2)c1OC,-2%,9%,21%,-3%,8%
COc1ccc(NC(=O)CN(C)C2=NS(=O)(=O)c3ccccc32)cc1Cl,-1%,-5%,-18%,.,3%
COc1ccc(C(CNC(=O)CSc2ccc(Br)cc2C)N2CCOCC2)cc1 (configuration not stated),-6%,?,?,.,1%
Cc1ccccc1OCc1ccc(-c2nc(C#N)c(N3CCN(c4cccc(Cl)c4)CC3)o2)o1,-6%,2%,0%,1%,.
COc1cc(C(=O)Oc2ccccc2/C=N/NC(=O)c2ccc(Cl)cc2Cl)cc(OC)c1OC,3%,0.92µM*,0.65µM*,9%,-7%
COc1cc(/C=N\NC(=O)c2ccc(-c3ccccc3)cc2)cc(OC)c1O,3%,-25%,?,3%,-15%
COc1cc(/C=N/NC(=O)c2cccc3ccccc23)cc(OC)c1OC,.,?,-7%,3%,5%
COc1cc(/C=N/NC(=O)c2cccc3ccccc23)cc(OC)c1O,3%[56.1 µM],?,4.6µM*,-10%,-2%
COc1ccccc1/C=N/NC(=O)c1ccc(-c2ccccc2)cc1,0%,?,21µM*,-2%,?
C=CCOc1ccccc1/C=N/NC(=O)c1ccc(Cl)cc1Cl,3%,?,-5%,-2%,2%
CCN(CC(=O)NCc1cccs1)C(=O)c1ccc(S(=O)(=O)Nc2ccccc2Cl)cc1,2%,-2%,-5%,.,-12%
